Source: ChEMBL document CHEMBL1125727 (J Med Chem, 1991)

Experiments:
UV4 = assay: Hypersensitivity factor obtained from in vitro cytotoxicities against Chinese hamster ovary derived AA8 / UV4 cell lines
P388 [1] = assay: Optimal dose administered as a single dose by intraperitoneal inoculation of 10 X E6 murine leukemia P388 cell lines.
CHO-AA8 = assay: Compound was evaluated for in vitro cytotoxicities against Chinese hamster ovary derived AA8 cell lines.
P388 [2] = assay: Percentage increase in lifespan of drug-related tumor bearing animals when heated at the optimal dose and tested in murine leukemia P388 cell lines.
P388 [3] = assay: In vitro cytotoxicity against murine leukemia P388 cell line.; assay type: functional, cell-based, Mus musculus
In short: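 P388 cells kept in exponential growth in RPMI 1640 with 10% fetal calf serum. Log-phase cultures in 96-well plates with drug present throughout 72 h growth. Final density read by a modified MTT method. IC50 is the nominal concentration reducing cell density to 50% of control, with eight controls per plate.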

`Cc1ccc(N(CCCl)CCCl)cc1` showed an IC50 (UV4) of 42 µM, an IC50 (P388 [1]) of 65 µM and an IC50 (CHO-AA8) of 2900 nM. The IC50 (P388 [2]) was 36 µM and the IC50 (P388 [3]) was 630 nM.
In the case of `CSc1ccc(N(CCCl)CCCl)cc1`, the IC50 (UV4) is reported as 33 µM and the IC50 (P388 [1]) is reported as 65 µM.
